Data published in US7169772B2, “4,4-difluoro-1,2,3,4-tetrahydro-5H-1-benzazepine derivatives or salts thereof” (Astellas Pharma Inc., priority 2001, dated 2007).
pIC50: −log10 of the molar value.

Amino acid sequences for entries named in this document (tags omitted).
UniProt P08684, whole entry: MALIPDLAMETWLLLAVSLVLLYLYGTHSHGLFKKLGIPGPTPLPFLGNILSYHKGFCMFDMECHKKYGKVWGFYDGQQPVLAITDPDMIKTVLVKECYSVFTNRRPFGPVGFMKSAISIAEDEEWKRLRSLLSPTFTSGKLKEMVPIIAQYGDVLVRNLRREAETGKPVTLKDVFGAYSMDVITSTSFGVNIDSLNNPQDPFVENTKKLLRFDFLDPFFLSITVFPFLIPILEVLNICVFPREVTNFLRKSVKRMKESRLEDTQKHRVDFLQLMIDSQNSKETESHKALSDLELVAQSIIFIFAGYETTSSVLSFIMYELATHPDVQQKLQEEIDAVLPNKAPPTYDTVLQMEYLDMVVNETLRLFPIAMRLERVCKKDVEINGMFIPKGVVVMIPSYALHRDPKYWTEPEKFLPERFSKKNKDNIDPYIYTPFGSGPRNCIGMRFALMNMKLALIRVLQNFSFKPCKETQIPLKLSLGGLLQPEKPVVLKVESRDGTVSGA
UniProt P11712, whole entry: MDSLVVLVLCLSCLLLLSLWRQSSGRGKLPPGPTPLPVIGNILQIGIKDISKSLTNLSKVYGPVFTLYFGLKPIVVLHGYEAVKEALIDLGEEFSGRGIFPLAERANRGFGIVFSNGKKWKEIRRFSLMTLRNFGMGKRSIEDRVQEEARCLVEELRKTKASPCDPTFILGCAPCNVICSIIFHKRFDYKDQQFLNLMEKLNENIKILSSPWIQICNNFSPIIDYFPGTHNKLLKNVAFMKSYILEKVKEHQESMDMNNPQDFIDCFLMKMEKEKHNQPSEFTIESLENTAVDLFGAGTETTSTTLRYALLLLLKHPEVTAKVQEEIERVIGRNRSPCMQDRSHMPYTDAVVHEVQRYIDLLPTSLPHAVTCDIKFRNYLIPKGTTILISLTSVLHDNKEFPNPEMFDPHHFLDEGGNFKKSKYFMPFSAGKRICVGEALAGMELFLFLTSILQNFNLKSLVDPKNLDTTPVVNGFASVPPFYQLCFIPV

Legend:
CYP3A4 = CYP3A4 (Homo sapiens, UniProt P08684); assay: Cytochrome P450 (3A4) enzyme inhibition assay; details: read-out: IC50 CYP3A4; substrate 7-benzyloxy-4-(trifluoromethyl)coumarin, 37° C., 30 minutes; tested form: HCl
CYP2C9 = CYP2C9 (Homo sapiens, UniProt P11712); assay: Cytochrome P450 (2C9) enzyme inhibition effects; details: read-out: IC50 CYP2C9; substrate 7-methoxy-4-(trifluoromethyl)coumarin, 37° C., 45 minutes; tested form: HCl
Procedure: C0: fluorescence intensity in the presence of an enzyme and a substrate, in the absence of a test compound • B1: fluorescence intensity of a blank well (5) Cytochrome P450 (2C9) Enzyme Inhibition Effects
The assay was carried out in accordance with a method of Crespi, et al. (Analytical Biochemistry, 248, 188–190, 1997).
A 96 well plate was employed, and 7-methoxy-4-(trifluoromethyl)coumarin (7.5×10^−5 M) as a substrate, a test compound (4.9×10^−8˜5×10^−5M), and an enzyme (10^−8 M) were incubated in a total of 200 μl of a 200 mM phosphate buffer solution (pH=7.4) comprising 8.2 μM NADP+, 0.41 mM glucose-6-phosphate, 0.41 mM MgCl2, and 0.4 Units/ml glucose-6-phosphate dehydrogenase, at 37° C. for 45 minutes. Then, 0.5 M aqueous solution of 2-amino-2-hydroxymethyl-1,3-propanediol containing 80% acetonitrile was added thereto to stop the reaction, and fluorescence intensity was measured with a fluorescent plate reader (excited wavelength: 409 nm, fluorescent wavelength: 530 nm). Inhibition rate was calculated from the above equation in (4), and the concentration of the test compound corresponding to an inhibition rate of 50% (IC50) was calculated.

pIC50 (CYP3A4): 4.80
pIC50 (CYP2C9): 5.19
Compound: O=C(/C=C1/c2ccccc2N(C(=O)c2ccc(-n3cccn3)cc2Cl)CCC1(F)F)NCc1ccccn1
